Experimental data from ChEMBL document CHEMBL1127053, “3,4-Dimethyl-4-(3-hydroxyphenyl)piperidines: opioid antagonists with potent anorectant activity” (J Med Chem, 1993).

By UniProt entry, the sequences of proteins in these tests, tags left out. Where a name states a change or a piece, a line headed by the entry shows the natural chain unless it says otherwise.
UniProt P41144: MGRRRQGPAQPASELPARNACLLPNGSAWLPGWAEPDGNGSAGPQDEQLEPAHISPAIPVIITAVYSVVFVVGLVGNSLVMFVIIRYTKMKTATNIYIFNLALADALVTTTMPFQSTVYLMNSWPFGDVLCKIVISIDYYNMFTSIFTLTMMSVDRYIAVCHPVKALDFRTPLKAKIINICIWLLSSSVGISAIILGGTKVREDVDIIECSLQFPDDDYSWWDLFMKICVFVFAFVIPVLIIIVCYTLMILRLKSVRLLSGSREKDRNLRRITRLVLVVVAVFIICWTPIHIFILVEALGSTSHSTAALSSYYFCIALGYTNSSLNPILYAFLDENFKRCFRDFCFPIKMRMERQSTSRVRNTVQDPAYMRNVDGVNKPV

Molecular target: Kappa-type opioid receptor (Cavia porcellus, UniProt P41144)
Assay: Binding affinity towards kappa opioid receptor by displacement of [3H]EKC in guinea pig cortical tissue
In short: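 Radioligand displacement. Kappa: [3H]EKC, guinea pig cortex, with fentanyl and DADL added to block mu/delta binding. Delta: [3H]DADL, rat brain homogenate.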

Compound: CCCCCCN1CC[C@@](C)(c2cccc(O)c2)[C@@H](C)C1 (stereo in doubt; 37)
- Ki: 5.2 nM

Compound: CCCCCCN1CC[C@](C)(c2cccc(O)c2)[C@H](C)C1
- Ki: 5.79 nM
